According to US20190241864A1, “Composition Comprising Non-Germinant and Bacterial Spores” (NOVOZYMES BIOAG A/S, priority 2016, published 2019):

System: Bacillus pumilus strain SB3189 spores
Experiment: Microscopy of spores after L-valine treatment alone (phase-bright to phase-dark)
Conditions: 0.5, 3.0, or 10.0 mM for 24 hours at 4° C. or 22° C.

For CC(C)[C@H](N)C(=O)O [L-valine], the “germination as a result of L-valine treatment alone, by microscopy” value was “No germination of the spores occurred”.
